# Patent publication US8877944B2, “3-oxo-2,3-dihydro-1H-isoindole-4-carboxamides as PARP inhibitors” (Nerviano Medical Sciences S.R.L., priority 2009, dated 2014)
# The chains behind the UniProt entries cited, without tags or fusion partners. Where a name states a change or a piece, a line headed by the entry shows the natural chain unless it says otherwise.
# UniProt Q9UGN5: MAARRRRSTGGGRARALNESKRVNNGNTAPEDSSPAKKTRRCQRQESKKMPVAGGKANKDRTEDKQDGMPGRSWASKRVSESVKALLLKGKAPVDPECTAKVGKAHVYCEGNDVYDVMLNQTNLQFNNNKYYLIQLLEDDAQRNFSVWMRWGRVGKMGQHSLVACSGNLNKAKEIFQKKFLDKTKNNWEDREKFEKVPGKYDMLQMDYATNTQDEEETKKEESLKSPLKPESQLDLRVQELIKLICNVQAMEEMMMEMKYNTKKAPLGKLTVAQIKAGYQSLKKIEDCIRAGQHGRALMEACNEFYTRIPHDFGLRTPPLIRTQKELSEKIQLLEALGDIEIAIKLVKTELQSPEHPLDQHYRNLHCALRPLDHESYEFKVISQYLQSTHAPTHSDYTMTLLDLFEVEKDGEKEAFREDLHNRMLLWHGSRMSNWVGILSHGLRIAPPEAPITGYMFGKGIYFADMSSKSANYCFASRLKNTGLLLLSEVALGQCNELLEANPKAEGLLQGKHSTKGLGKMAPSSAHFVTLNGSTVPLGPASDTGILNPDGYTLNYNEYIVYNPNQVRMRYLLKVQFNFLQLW
# Target: PARP-2 FL (Homo sapiens (Human), UniProt Q9UGN5)
# Assay: Fluorescence polarization probe displacement assay, PARP-2
# Type: binding
# Details: compound P1 as the probe, 250 nM PARP-2
smiles,measurement,value
"CN(C)CC(=O)Nc1ccc2[nH]c(=O)c3ccccc3c2c1 [PJ34, N-(6-oxo-5,6-dihydro-phenanthridin-2-yl)-N,N-dimethylacetamide, reference compound]",Kd,< 0.03 µM
